These results are taken from ChEMBL document CHEMBL3632544, “Acyl dihydropyrazolo[1,5-a]pyrimidinones as metabotropic glutamate receptor 5 positive allosteric modulators” (Bioorg Med Chem Lett, 2015).

Sequences of proteins named here, by UniProt entry; tags and fusion partners are left off.
UniProt P41594, whole entry, looked up: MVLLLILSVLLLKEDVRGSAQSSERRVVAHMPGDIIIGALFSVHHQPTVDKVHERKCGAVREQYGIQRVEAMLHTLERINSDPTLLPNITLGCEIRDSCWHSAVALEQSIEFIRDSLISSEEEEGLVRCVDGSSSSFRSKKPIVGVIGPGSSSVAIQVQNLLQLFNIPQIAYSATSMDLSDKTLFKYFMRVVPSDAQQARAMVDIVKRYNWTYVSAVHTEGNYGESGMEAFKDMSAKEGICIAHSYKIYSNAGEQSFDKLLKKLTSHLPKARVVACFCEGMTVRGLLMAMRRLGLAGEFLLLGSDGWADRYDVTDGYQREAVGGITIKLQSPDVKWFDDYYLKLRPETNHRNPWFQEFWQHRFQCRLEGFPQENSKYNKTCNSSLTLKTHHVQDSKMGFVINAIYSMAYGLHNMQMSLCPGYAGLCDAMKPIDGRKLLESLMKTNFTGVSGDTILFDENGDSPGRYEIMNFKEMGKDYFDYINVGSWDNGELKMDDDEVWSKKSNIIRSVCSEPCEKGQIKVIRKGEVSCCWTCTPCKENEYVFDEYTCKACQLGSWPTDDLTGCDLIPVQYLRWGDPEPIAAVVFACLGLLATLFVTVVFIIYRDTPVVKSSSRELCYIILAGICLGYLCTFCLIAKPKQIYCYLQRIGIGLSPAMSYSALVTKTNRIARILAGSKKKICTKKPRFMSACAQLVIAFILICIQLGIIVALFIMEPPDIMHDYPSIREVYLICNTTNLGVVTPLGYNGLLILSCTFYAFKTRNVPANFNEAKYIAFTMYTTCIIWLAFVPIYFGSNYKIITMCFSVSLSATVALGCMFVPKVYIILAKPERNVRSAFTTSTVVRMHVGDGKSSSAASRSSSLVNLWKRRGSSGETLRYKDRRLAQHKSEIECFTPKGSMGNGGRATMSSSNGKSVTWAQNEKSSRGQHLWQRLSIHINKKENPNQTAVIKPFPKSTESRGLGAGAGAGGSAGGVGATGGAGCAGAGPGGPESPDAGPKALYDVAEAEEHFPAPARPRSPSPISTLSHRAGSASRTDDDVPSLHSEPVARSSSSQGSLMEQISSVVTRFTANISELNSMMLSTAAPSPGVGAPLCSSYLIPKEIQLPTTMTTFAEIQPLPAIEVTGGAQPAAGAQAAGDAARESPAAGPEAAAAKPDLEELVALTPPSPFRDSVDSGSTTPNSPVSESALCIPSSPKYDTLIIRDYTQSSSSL
UniProt P31424, whole entry, looked up: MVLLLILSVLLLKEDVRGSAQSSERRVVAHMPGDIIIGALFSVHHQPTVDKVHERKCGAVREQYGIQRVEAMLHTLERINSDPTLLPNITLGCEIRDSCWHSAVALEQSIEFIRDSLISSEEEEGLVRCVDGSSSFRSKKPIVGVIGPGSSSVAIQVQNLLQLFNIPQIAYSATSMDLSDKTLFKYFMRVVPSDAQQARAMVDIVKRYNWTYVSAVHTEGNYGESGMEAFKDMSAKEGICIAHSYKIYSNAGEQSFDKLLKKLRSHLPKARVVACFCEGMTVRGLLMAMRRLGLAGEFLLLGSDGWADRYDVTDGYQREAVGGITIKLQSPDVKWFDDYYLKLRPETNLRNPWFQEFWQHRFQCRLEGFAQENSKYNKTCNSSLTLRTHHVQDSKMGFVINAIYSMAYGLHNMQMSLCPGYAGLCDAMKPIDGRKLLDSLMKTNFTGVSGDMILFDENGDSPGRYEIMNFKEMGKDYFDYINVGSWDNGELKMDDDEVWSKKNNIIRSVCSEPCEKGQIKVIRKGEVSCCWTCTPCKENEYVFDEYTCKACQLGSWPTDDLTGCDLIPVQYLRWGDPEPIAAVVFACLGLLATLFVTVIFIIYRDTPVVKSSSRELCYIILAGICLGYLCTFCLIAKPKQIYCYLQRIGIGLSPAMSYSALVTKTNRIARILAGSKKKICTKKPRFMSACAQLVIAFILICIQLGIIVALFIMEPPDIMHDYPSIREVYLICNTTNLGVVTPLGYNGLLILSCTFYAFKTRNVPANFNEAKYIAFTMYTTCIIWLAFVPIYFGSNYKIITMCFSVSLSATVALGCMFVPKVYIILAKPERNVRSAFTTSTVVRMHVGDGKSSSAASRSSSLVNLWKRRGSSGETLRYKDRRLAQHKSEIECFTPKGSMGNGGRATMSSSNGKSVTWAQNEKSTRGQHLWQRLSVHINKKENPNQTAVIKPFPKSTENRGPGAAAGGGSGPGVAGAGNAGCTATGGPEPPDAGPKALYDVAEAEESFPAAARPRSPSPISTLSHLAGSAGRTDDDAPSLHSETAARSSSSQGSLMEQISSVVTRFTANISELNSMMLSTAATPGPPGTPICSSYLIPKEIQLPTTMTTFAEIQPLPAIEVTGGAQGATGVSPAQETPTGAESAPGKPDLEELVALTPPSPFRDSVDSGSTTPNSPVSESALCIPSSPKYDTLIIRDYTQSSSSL

Assay [1] addresses Metabotropic glutamate receptor 5 (Homo sapiens, UniProt P41594). Put plainly: Positive allosteric modulation of human mGlu5 expressed in HEK293 cells assessed as maximal calcium mobilization response at 10 uM relative to control. Type of assay: functional, cell-based.
In assay [2] the target is Metabotropic glutamate receptor 5 (Rattus norvegicus) (UniProt P31424). Put plainly: Positive allosteric modulation of rat mGlu5 assessed as maximal calcium mobilization response at 10 uM by cell-based assay relative to control. Type of assay: functional.

SMILES strings stand for the structures.

For the molecule `CC(=O)N1CCCn2nc(COc3ccccc3)cc21`, the values for the fold change (FC) in assay [1] and in assay [2] were 5 and 4.2, respectively.
